Drawing on patent US12187742B2 (XRAD Therapeutics, Inc., priority 2018, dated 2025), this text covers IC50 for one molecule.

Sequences of proteins named here, by UniProt entry; tags and fusion partners are left off.
UniProt Q13315, whole entry: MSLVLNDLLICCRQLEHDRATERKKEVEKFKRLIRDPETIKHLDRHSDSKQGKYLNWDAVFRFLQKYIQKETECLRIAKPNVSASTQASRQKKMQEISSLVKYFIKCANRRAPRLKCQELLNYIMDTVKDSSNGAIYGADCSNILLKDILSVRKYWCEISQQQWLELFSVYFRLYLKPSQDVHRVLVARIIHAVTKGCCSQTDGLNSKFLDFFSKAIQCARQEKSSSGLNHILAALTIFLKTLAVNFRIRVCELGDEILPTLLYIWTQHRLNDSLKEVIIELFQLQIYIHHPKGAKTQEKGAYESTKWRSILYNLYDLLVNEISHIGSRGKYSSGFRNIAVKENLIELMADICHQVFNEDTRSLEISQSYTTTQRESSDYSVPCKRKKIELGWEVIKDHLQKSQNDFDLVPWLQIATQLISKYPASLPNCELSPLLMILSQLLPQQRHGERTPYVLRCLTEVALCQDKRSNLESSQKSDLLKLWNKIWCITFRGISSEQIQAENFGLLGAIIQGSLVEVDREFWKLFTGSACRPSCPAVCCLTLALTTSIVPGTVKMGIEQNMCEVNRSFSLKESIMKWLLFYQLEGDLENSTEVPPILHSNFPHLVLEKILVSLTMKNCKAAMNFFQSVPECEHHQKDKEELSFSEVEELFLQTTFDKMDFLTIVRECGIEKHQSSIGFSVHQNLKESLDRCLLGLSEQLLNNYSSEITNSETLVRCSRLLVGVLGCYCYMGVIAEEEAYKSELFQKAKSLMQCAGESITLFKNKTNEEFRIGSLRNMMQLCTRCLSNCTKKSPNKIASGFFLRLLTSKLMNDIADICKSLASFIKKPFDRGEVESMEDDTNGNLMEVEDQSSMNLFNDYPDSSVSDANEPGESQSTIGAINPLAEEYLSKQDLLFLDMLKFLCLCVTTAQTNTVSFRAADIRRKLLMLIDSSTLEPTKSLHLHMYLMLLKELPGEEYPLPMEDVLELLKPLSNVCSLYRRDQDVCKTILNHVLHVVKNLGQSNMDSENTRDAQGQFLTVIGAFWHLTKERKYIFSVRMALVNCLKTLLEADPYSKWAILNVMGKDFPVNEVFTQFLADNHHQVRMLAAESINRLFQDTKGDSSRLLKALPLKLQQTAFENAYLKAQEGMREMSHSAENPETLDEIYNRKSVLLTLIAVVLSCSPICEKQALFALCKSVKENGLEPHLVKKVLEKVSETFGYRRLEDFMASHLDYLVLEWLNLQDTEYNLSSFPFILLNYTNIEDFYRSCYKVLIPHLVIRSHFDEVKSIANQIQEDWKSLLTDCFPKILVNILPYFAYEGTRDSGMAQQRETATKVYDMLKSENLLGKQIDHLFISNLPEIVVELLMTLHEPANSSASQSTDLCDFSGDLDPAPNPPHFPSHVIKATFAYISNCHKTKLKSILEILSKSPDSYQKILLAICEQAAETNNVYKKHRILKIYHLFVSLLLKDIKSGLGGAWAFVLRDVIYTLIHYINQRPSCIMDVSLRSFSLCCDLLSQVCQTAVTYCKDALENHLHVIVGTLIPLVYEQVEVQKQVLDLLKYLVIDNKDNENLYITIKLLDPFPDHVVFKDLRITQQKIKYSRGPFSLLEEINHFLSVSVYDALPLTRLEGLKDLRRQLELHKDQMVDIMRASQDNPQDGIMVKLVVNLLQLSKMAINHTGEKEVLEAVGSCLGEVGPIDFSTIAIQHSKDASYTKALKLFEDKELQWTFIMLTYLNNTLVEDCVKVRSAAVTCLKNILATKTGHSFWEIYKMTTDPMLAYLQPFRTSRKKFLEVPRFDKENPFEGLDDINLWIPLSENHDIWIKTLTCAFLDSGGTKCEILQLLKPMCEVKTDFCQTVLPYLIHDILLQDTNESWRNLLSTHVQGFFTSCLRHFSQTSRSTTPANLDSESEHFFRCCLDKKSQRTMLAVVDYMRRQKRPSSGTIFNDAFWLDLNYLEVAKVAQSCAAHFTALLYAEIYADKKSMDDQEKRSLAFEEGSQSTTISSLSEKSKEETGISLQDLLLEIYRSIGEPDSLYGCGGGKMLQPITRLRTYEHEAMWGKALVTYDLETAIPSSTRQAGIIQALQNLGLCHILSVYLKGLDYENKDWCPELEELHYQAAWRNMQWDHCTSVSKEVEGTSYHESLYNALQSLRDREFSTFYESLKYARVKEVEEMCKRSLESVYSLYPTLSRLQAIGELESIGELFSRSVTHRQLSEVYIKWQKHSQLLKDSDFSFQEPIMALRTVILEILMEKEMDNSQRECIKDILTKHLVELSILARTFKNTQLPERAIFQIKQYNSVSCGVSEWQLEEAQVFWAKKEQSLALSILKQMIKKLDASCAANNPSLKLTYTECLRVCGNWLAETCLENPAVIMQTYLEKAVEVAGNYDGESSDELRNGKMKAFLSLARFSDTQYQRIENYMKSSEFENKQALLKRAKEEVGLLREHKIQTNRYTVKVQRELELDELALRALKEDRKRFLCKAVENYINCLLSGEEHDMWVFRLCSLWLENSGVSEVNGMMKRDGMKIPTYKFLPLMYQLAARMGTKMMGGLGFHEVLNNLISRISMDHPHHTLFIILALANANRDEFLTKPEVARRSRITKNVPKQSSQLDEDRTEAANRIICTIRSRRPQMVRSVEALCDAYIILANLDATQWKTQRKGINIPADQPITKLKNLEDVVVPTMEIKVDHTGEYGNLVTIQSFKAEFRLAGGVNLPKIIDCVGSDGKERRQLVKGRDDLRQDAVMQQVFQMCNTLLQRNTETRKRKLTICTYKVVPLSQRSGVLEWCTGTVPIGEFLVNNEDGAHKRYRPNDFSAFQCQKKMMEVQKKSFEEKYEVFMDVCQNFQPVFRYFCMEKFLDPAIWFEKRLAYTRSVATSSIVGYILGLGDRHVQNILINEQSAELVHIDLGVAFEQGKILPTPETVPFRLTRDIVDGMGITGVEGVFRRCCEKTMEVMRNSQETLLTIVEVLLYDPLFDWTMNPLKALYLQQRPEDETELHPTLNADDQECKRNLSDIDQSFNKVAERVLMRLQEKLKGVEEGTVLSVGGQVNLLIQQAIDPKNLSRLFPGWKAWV

This test concerns the target ATM (Homo sapiens (Human), UniProt Q13315). The experiment in a line: ATM in Cell Western Assay (pKAP1 in etoposide-treated MCF-7 cells). The following applies: read-out: ATM (cell).

Molecules are shown by their SMILES.

For `CN(C)CCCOc1ncc(-c2ccc3ncc4c(c3c2)C2(CNC2)C(=O)N4C)cc1NS(C)(=O)=O`, the IC50 is > 100 nM.
